{
  "source": "ChEMBL document CHEMBL3108713",
  "about": "“Identification of ML251, a Potent Inhibitor of T. brucei and T. cruzi Phosphofructokinase” (ACS Med Chem Lett, 2014)",
  "target": "T1, ATP-dependent 6-phosphofructokinase (Trypanosoma brucei, UniProt O15648)",
  "T1 sequence (O15648 whole entry)": "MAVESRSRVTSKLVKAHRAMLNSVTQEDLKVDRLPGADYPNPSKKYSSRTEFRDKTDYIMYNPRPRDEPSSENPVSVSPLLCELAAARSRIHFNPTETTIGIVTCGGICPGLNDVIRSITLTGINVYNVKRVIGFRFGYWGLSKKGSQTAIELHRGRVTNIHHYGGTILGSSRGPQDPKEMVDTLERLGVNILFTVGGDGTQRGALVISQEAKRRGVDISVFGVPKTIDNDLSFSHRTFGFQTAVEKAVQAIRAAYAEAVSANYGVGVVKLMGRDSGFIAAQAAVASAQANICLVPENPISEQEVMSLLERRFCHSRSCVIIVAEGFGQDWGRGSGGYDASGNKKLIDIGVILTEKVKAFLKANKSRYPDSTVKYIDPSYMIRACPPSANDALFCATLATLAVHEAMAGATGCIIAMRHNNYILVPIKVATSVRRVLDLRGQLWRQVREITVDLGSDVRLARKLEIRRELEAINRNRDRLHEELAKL",
  "assay": "Inhibition of Trypanosoma brucei PFK-mediated ADP production using ATP/fructose-6-phosphate as substrate by luciferase based luminescence assay",
  "summary_of_the_method": "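Recombinant enzyme; ADP formed by PFK detected with modified luciferase (ADP-Glo) luminescent end-point in 1536-well format.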",
  "data": [
    {"smiles": "Cc1cc(NS(=O)(=O)c2ccc(N)cc2)no1", "note": "[SULFAMETHOXAZOLE]", "values": [
      {"measurement": "IC50", "value": "> 57", "unit": "µM"}
    ]}
  ]
}
